Data on 121 molecules can be found in PubChem BioAssay AID624297 (National Center for Advancing Translational Sciences (NCATS), 2012).

Only a part is listed here, and it is no random draw. Inconclusive results are not listed. Where a call stands in place of a potency, no number is given. Active and inactive are the calls of the source. Calls come from the whole dose curve; as a rule, active = well fitted activation curve with a large enough effect; inconclusive = small, poorly fitted or top-dose-only effect; inactive = no such curve, though single readings can be large or run the other way.
Potency is the fitted concentration of half-maximal effect.

The nature of the assay: A quantitative high throughput screen for small molecules that induce DNA re-replication in SW480 colon adenocarcinoma cells. Note: nearly all actives have a fitted effect of over 55% in size. To be noted: Hoechst DNA content imaging, 48 h; series mostly up to 46.1 µM.
Regarding `NC(=O)c1cc([N+](=O)[O-])cc([N+](=O)[O-])c1N`, the Potency entry is “inactive”.

Take `Cc1ccc(N/C(=N/P(=O)(N2CCOCC2)N2CCOCC2)N2CCOCC2)cc1`: the Potency result was “inactive”.

As for `CN(C(=O)Cc1ccc(Cl)c(Cl)c1)[C@H]1CCCC[C@H]1N1CCCC1`, the Potency result is “inactive”.

Regarding `Cc1ccc(OP(=O)(Nc2nccs2)Oc2ccc(C)cc2)cc1`, the Potency entry was “inactive”.

`COc1ccccc1OP(=O)(Nc1ccc(C)cn1)Oc1ccccc1OC`: the Potency is active: 3.66 µM.

As to `Clc1ccc(Cl)c(NC2=NCC(CBr)S2)c1` (stereo unspecified), the Potency result is “inactive”.

On to `CN1CCCC(OC(=O)C(c2ccccc2)c2ccccc2)C1` (stereo unspecified), for which the Potency result is “inactive”.

On to `CC(C)CC(=O)NC(Sc1ccc(Cl)cc1)C(Cl)(Cl)Cl` (stereo unspecified), for which the Potency entry is “inactive”.

Consider `Nc1cc(N)c2nonc2c1[N+](=O)[O-]`, for which the Potency result was “inactive”.

Turning to `O=C(NC(Sc1ccncn1)C(Cl)(Cl)Cl)c1ccccc1` (stereo unspecified), the Potency result was “inactive”.

As to `Oc1ccccc1CNc1ccccn1`, the Potency entry is “inactive”.

On to `CCCC1OP(N)(=O)OCC1CC` (stereo unspecified), for which the Potency result was “inactive”.

Take `O=C(O)c1ccccc1[As](=O)(O)O`: the Potency result was “inactive”.

On to `CC(=O)Nc1ccc([As](=O)(O)O)cc1`, for which the Potency result was “inactive”.

As to `O=P(Nc1nc2ccc(Cl)cc2s1)(c1ccccc1)c1ccccc1`, the Potency entry was “inactive”.

On to `CN(C(=O)Cc1ccc(Cl)c(Cl)c1)[C@H]1CCCC[C@@H]1N1CCCC1`, for which the Potency result is “inactive”.

For the molecule `Cc1ccc(NP(=O)(Oc2ccccc2F)Oc2ccccc2F)nc1`, the Potency entry is “inactive”.

For the molecule `CCOP(=O)(Nc1ccccc1)OCC`, the Potency entry was “inactive”.

Turning to `Cc1cc(SC(NC(=O)c2ccc(F)cc2)C(Cl)(Cl)Cl)ncn1` (stereo unspecified), the Potency entry is “inactive”.

Consider `CCN(N=Nc1nonc1N)c1nonc1N`, for which the Potency entry was “inactive”.

`Nc1cccc2ccc([As](=O)(O)O)cc12`: the Potency entry is “inactive”.

On to `O=P1(N(CCCl)CCCl)OCCCS1` (stereo unspecified), for which the Potency entry is “inactive”.

For the molecule `O=C(Nc1cc([As](=O)(O)O)ccc1O)c1ccccc1`, the Potency result is “inactive”.

As for `CC(C)(C)C(=O)NC(Sc1ccncn1)C(Cl)(Cl)Cl` (stereo unspecified), the Potency result was “inactive”.

Regarding `O=[N+]([O-])c1ncn(CCn2ncnc2[N+](=O)[O-])n1`, the Potency entry was “inactive”.

Take `O=[N+]([O-])c1cccc(NC2=NCC(CBr)S2)c1` (stereo unspecified): the Potency entry is “inactive”.

For the molecule `COC(=O)C1(C)COP(=O)(Nc2ccccc2)OC1` (stereo unspecified), the Potency entry was “inactive”.

For the molecule `O=C(O)CNc1ccc([As](=O)(O)O)cc1`, the Potency entry is “inactive”.

As to `COc1ccc(C2=NCC(CBr)S2)cc1` (stereo unspecified), the Potency entry was “inactive”.

For `CC(=O)N1C2C3N(C(C)=O)C1C1N(C(C)=O)C(C(N1C(C)=O)N3C(C)=O)N2C(C)=O`, the Potency result was “inactive”.

As for `O=[N+]([O-])c1cccc2n[nH]nc12`, the Potency result is “inactive”.

For the molecule `Nc1ccc([As](=O)(O)c2ccc(N)cc2)cc1`, the Potency result was “inactive”.

`CCN(/C(=N/P(=O)(N1CCOCC1)N1CCOCC1)N1CCOCC1)c1ccc(OC)cc1`: the Potency entry was “inactive”.

Consider `CN(C)C(=O)OCCc1n(C)cc[n+]1C`, for which the Potency result is “inactive”.

Take `CC(C)=N/N=C(\N)N[N+](=O)[O-]`: the Potency entry was “inactive”.

On to `CC1CCN(C(=O)Oc2c(Cl)cc(Cl)c3cccnc23)CC1`, for which the Potency entry was “inactive”.

With `O=P(Nc1nccs1)(c1ccccc1)c1ccccc1`, the Potency result was “inactive”.

As for `CC(C)C(=O)NC(Sc1ccccc1)C(Cl)(Cl)Cl` (stereo unspecified), the Potency entry is “inactive”.

With `c1nnnn1CCn1cnnn1`, the Potency entry was “inactive”.

On to `COc1ccc(N)c([N+](=O)[O-])c1[N+](=O)[O-]`, for which the Potency result is “inactive”.

Consider `CN(C)C1(CNC(=O)c2ccc(Cl)c(S(N)(=O)=O)c2)CCCCC1`, for which the Potency entry is “inactive”.

As for `C[C@H]1OP(=O)(Oc2ccccc2)[C@H](O)[C@H](O)[C@H]1N=[N+]=[N-]` (stereo partly specified), the Potency entry is “inactive”.

Turning to `O=P(Nc1nc2ccccc2s1)(c1ccccc1)c1ccccc1`, the Potency result is “inactive”.

As for `CN(C(=O)Cc1ccccc1)[C@H]1CC[C@@]2(CCCO2)C[C@@H]1N1CCCC1`, the Potency entry is “inactive”.

Take `O=[N+]([O-])c1ncn(CCn2cnc([N+](=O)[O-])n2)n1`: the Potency entry was “inactive”.

For `CC(=O)NC(SC(=S)N(C)C)C(Cl)(Cl)Cl` (stereo unspecified), the Potency is active: 0.231 µM.

As to `O=[N+]([O-])c1ccc(O)c(/C=N/Nc2ccc([N+](=O)[O-])cc2[N+](=O)[O-])c1`, the Potency entry is “inactive”.

With `O=[As](O)(c1ccccc1)c1ccc(O)cc1`, the Potency result is “inactive”.

Regarding `Nc1ccc([As](=O)(O)c2ccc([N+](=O)[O-])cc2)cc1`, the Potency result was “inactive”.

Take `C(Cc1nn[nH]n1)Cc1nn[nH]n1`: the Potency entry was “inactive”.

For the molecule `O=C(OC1CN2CCC1CC2)c1cccc(Cl)c1` (stereo unspecified), the Potency result was “inactive”.

On to `O=C(NC1CCS(=O)(=O)C1)NP(=S)(Oc1ccccc1)Oc1ccccc1` (stereo unspecified), for which the Potency entry was “inactive”.

Consider `CCNC(=S)/N=C(\N)N[N+](=O)[O-]`, for which the Potency result was “inactive”.

On to `Cc1ccc(NP(=O)(Oc2cccc(C)c2)Oc2cccc(C)c2)nc1`, for which the Potency result is “inactive”.

Consider `c1ccc(-c2nn[nH]n2)c(-c2nn[nH]n2)c1`, for which the Potency entry is “inactive”.

With `O=P1(N(CCCl)CCCl)OCCC2CCCCN21` (stereo unspecified), the Potency entry was “inactive”.

In the case of `Cc1ccc(OP(=O)(Nc2ccccn2)Oc2ccc(C)cc2)cc1`, the Potency entry was “inactive”.

On to `CC(=O)NC(SC(=S)N(CC(C)C)CC(C)C)C(Cl)(Cl)Cl` (stereo unspecified), for which the Potency result was “inactive”.

Regarding `COC(=O)c1cc2c(s1)N=C(c1ccccc1)N(C)P2(=O)N1CCOCC1` (stereo unspecified), the Potency entry was “inactive”.

On to `CCC(=O)N1C2C3N(C(=O)CC)C1C1N(C(=O)CC)C(C(N1C(=O)CC)N3C(=O)CC)N2C(=O)CC`, for which the Potency result was “inactive”.

Consider `O=C(OC1CN2CCC1CC2)c1ccccc1` (stereo unspecified), for which the Potency result was “inactive”.

In the case of `CN(C)C(=O)Oc1noc2ccccc12`, the Potency result is “inactive”.

As for `Cc1ccccc1OP(=O)(Nc1ccccn1)Oc1ccccc1C`, the Potency entry was “inactive”.

Consider `CC(NC(=O)COC(=O)C(O)(c1ccccc1)c1ccccc1)c1ccccc1` (stereo unspecified), for which the Potency result was “inactive”.

With `CCOc1ccc(C2=NCC(CBr)S2)cc1` (stereo unspecified), the Potency result is “inactive”.

For the molecule `O=P1(Nc2nc3ccc(Cl)cc3s2)COc2ccccc2O1` (stereo unspecified), the Potency entry was “inactive”.

As to `CCc1cc(O)c([N+](=O)[O-])c(C)c1[N+](=O)[O-]`, the Potency result is “inactive”.

Turning to `CC(C)(C)C(=O)NC(Sc1ccccc1)C(Cl)(Cl)Cl` (stereo unspecified), the Potency result was “inactive”.

On to `COC(=O)C1(C)COP(=O)(NCc2ccccc2)OC1` (stereo unspecified), for which the Potency entry was “inactive”.

As to `N#C/C(=C\c1ccc(N(CCBr)CCBr)cc1)C(N)=O`, the Potency is active: 20.6 µM.

In the case of `C[C@@H]1C=CCP(=O)(Oc2ccccc2)O1` (stereo partly specified), the Potency entry is “inactive”.

Regarding `C[C@H]1OP(=O)(Oc2ccccc2)C[C@@H]2O[C@@H]21` (stereo partly specified), the Potency entry was “inactive”.

Regarding `Cc1ccccc1CN(C)C(=O)COC(=O)C(O)(c1ccccc1)c1ccccc1`, the Potency result was “inactive”.

Take `CC(=O)Nc1ccc(Oc2c([N+](=O)[O-])cc([N+](=O)[O-])cc2[N+](=O)[O-])cc1`: the Potency result was “inactive”.

Consider `CC(=O)Nc1ccc([As](=O)(O)O)c(O)c1`, for which the Potency entry was “inactive”.

With `CS(=O)(=O)c1ccc(Cl)c(NC(=O)COC(=O)C(O)(c2ccccc2)c2ccccc2)c1`, the Potency entry is “inactive”.

Consider `COc1cc(C(=O)NCC2(N3CCOCC3)CCCCC2)cc(Cl)c1OC(C)C`, for which the Potency entry is “inactive”.

Consider `O=[As](O)(O)c1cccnc1`, for which the Potency entry is “inactive”.

As for `O=C(OC1CN2CCC1CC2)c1ccc(Cl)cc1` (stereo unspecified), the Potency entry was “inactive”.

Consider `Cc1cccc(OCC(=O)OC2CN3CCC2CC3)c1` (stereo unspecified), for which the Potency result is “inactive”.

Turning to `CCCOP(=S)(Nc1nc(N)cc(=O)[nH]1)OCCC`, the Potency entry was “inactive”.

For the molecule `Nc1cccc2c([As](=O)(O)O)cccc12`, the Potency entry was “inactive”.

For the molecule `CCOP(=O)(Nc1cccc2ccccc12)OCC`, the Potency entry is “inactive”.

Regarding `COc1cc(C2NCCC3(OCCO3)C2(C)C)cc(OC)c1OC` (stereo unspecified), the Potency result is “inactive”.

As to `O=P(Nc1nccs1)(c1ccccc1)c1nc2ccccc2s1` (stereo unspecified), the Potency result is “inactive”.

`O=P(Nc1nccs1)(Oc1ccccc1)Oc1ccccc1`: the Potency entry was “inactive”.

Regarding `O=C(O)COc1ccc([As](=O)(O)O)cc1[N+](=O)[O-]`, the Potency entry is “inactive”.

Take `Nc1ccccc1[As](=O)(O)c1ccccc1`: the Potency result was “inactive”.

`NC(=O)Nc1ccc([As](=O)(O)O)cc1`: the Potency result was “inactive”.

As to `CN(C(=O)Cc1ccc(Cl)c(Cl)c1)[C@H]1CC[C@@]2(CCCO2)C[C@@H]1N1CCCC1`, the Potency result was “inactive”.

On to `O=[N+]([O-])c1ccc2c(c1)nnn2O`, for which the Potency entry was “inactive”.

`CN(C(=O)Cc1ccccc1)[C@@H]1CC[C@]2(CCCO2)C[C@H]1N1CCCC1`: the Potency entry is “inactive”.

Consider `CCOP1(=S)c2c(C)nn(CCC#N)c2N=C(c2ccc(F)cc2)N1C` (stereo unspecified), for which the Potency result was “inactive”.

For the molecule `N#CCCN(C(=O)COC(=O)C(O)(c1ccccc1)c1ccccc1)c1ccc(F)cc1`, the Potency entry is “inactive”.

For `Cc1ccc(C(=O)OC2CN3CCC2CC3)cc1` (stereo unspecified), the Potency entry is “inactive”.

As to `CC1CCC(C(C)C)C(OP(=O)(Nc2ccccn2)c2ccccc2)C1` (stereo unspecified), the Potency result is “inactive”.

With `Cc1nn(-c2ccccc2)c2c1P(=O)(N1CCOCC1)N(C)C(c1ccccc1)=N2` (stereo unspecified), the Potency entry was “inactive”.

Regarding `CCCC1OP(=O)(Nc2ccccc2)OCC1CC` (stereo unspecified), the Potency result is “inactive”.

As for `O=C(/C=C/c1ccccc1)OC1CN2CCC1CC2` (stereo unspecified), the Potency entry was “inactive”.

As to `CN(C)C1(CNC(=O)c2ccc(S(C)(=O)=O)cc2)CCCCC1`, the Potency entry was “inactive”.

In the case of `O=P1(Nc2ncccn2)COc2ccccc2OC1`, the Potency entry is “inactive”.

Regarding `NS(=O)(=O)c1cccc(NC(=O)COC(=O)C(O)(c2ccccc2)c2ccccc2)c1`, the Potency entry is “inactive”.

Turning to `O=P1(Nc2ccc(Br)cn2)COc2ccccc2OC1`, the Potency result was “inactive”.

As to `O=[As](O)(c1cccs1)c1cccs1`, the Potency entry is “inactive”.

As to `Cc1ccc(OCC(=O)OC2CN3CCC2CC3)cc1` (stereo unspecified), the Potency entry was “inactive”.

Turning to `Nc1cccc([As](=O)(O)c2ccccc2)c1`, the Potency result is “inactive”.

In the case of `CCOP(=O)(Nc1ccc(C)cn1)OCC`, the Potency result was “inactive”.

With `CCOP(=O)(NC(=NC(C)c1ccccc1)NC(C)c1ccccc1)OCC` (stereo unspecified), the Potency result is “inactive”.

As for `CCC1=CC2Cc3nc4ccc(Cl)cc4c(N)c3C(C1)C2` (stereo unspecified), the Potency result is “inactive”.

For `O=P1(Nc2ccccn2)COc2ccccc2OC1`, the Potency result is “inactive”.

In the case of `CC(C)(C)C(=O)NC(Sc1ncccn1)C(Cl)(Cl)Cl` (stereo unspecified), the Potency entry is “inactive”.

Turning to `Clc1n[nH]nc1-c1nn[nH][15n]1`, the Potency result is “inactive”.

On to `COc1ccccc1CNC(=O)COC(=O)C(O)(c1ccccc1)c1ccccc1`, for which the Potency result is “inactive”.

Take `CC1(CBr)Cn2c(nc3ccccc3c2=O)S1` (stereo unspecified): the re-replication activation was inactive: -6.45% [at 9.22 µM].

Regarding `CN(C(=O)Cc1ccc(Cl)c(Cl)c1)[C@@H]1CCCC[C@H]1N1CCCC1`, the Potency result is “inactive”.

Turning to `CC(C)/C=N\N=C(\N)N[N+](=O)[O-]`, the Potency result is “inactive”.

For `COP1(=S)c2c(C)nn(CCC#N)c2N=C(c2ccc(F)cc2)N1C` (stereo unspecified), the Potency result is “inactive”.

Regarding `O=C(Nc1ccncc1[N+](=O)[O-])c1ccc([N+](=O)[O-])cc1[N+](=O)[O-]`, the Potency entry was “inactive”.

Consider `O=C(COc1ccccc1)OC1CN2CCC1CC2` (stereo unspecified), for which the Potency result is “inactive”.

For the molecule `O=C(OC1CN2CCC1CC2)c1cccc([N+](=O)[O-])c1` (stereo unspecified), the Potency entry is “inactive”.

Consider `CCC(C)N(CC(C)C)C(=S)SC(NC(C)=O)C(Cl)(Cl)Cl` (stereo unspecified), for which the Potency result was “inactive”.
